Data taken from PMC9321231.

Molecular target: T1, human neutrophil elastase (HNE) (Homo sapiens, UniProt P08246)
T1 sequence (P08246 30-267): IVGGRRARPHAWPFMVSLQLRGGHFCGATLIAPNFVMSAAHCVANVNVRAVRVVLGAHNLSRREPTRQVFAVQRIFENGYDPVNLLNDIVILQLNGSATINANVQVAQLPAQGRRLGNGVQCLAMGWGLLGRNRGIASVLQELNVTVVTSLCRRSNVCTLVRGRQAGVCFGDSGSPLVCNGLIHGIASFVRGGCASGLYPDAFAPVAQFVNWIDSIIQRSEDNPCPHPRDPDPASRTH
Test: Human neutrophil elastase inhibition assay (spectrofluorimetric, MeOSuc-AAPV-AMC substrate)

IC50: 18.78 ± 0.13 nM
SMILES: CC(C)(C)C(=O)Oc1ccc(S(=O)(=O)Nc2ccccc2C(=O)NCC(=O)O)cc1 [Sivelestat, sivelestat, reference compound]
